Reference: US9664696B1, “Compounds for determining the presence of hydrogen sulfide and methods of use” (University of Oregon, priority 2013, dated 2017)

How the values were obtained:
[1] = Photoactivation experiments of azide-containing fluorophores; settings: 5 μM, PIPES buffer pH 7.4, 37° C., fluorescence excitation
[2] = Colorimetric selectivity studies, H2S versus amino acids and RSONS
[3] = 30 equivalents of H2S then added, 45 min

Row | Compound | photostability under continuous exposure [1] | absorbance peak at 534 nm after initial incubation ([2]; 3 μM compound, 10 equivalents of H2S, glycine, serine, tyrosine, lysine, glutathione, N-acetyl-L-cysteine) | H2S response after incubation of GSH and N-acetylcysteine [2, 3] | colorimetric response to H2S after incubation with biological nucleophiles [2, 3] | visual color response ([2]; 50 equivalents of different amino acids or RSONS)
1 | 2,6-dansyl azide | probe photoactivation | – | – | – | –
2 | O=[N+]([O-])c1ccc(Cl)c2nonc12 | – | only the H2S samples showed the characteristic absorbance peak at 534 nm | somewhat eroded | robust colorimetric response to H2S | only H2S generates the characteristic color
3 | hydrosulfide naphthalimide | probe photoactivation | – | – | – | –
